Assay results from patent US6528494B2 (priority 1996, dated 2003).

Protein sequences, listed by entry. Tags and fused reporters are not part of them.
UniProt P30542, whole entry: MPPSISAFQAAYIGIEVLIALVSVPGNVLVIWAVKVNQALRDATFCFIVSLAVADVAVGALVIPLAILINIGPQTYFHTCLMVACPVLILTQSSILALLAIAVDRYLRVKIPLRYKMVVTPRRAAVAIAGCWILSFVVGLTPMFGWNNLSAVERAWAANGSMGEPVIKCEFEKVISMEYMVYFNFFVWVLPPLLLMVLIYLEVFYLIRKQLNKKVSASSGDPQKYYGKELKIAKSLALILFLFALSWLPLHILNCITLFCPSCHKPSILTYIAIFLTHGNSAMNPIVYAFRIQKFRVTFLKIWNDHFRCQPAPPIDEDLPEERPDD
UniProt P0DMS8, whole entry: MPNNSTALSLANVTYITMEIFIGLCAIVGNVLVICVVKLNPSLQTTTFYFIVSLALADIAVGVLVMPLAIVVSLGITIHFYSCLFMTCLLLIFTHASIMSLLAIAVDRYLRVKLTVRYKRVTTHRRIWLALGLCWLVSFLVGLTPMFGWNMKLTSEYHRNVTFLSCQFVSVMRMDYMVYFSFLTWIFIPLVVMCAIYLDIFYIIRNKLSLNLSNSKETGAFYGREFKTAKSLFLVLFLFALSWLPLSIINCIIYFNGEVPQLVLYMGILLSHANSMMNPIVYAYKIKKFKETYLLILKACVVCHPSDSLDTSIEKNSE

How the values were obtained:
Type in all cases: cell-based
adenosine 2a receptor = adenosine 2a receptor (Homo sapiens, UniProt P29274); assay: Agonist activity against adenosine 2a receptor (CHO cells, cAMP/SPAP reporter); conditions: CHO cells transfected with human receptor; basal cAMP via SPAP; mean of all the versions tested
Protocol: (§1) (1) Agonist activity against adenosine 2a, adenosine 1 and adenosine 3 receptor subtypes.
(§2) The effect of test compounds was determined by their effects on basal levels of cAMP (A2a) or on forskolin-enhanced cAMP (A1 and A3) as reflected by changes in levels of SPAP.

adenosine 1 receptor = adenosine 1 receptor (Homo sapiens, UniProt P30542); assay: Agonist activity against adenosine 1 receptor (CHO cells, forskolin-enhanced cAMP/SPAP reporter); conditions: CHO cells transfected with human receptor; forskolin-enhanced cAMP via SPAP; mean of all the versions tested
Protocol: as §1, §2

adenosine 3 receptor = adenosine 3 receptor (Homo sapiens, UniProt P0DMS8); assay: Agonist activity against adenosine 3 receptor (CHO cells, forskolin-enhanced cAMP/SPAP reporter); conditions: CHO cells transfected with human receptor; forskolin-enhanced cAMP via SPAP; mean of all the versions tested
Protocol: as §1, §2

With CCn1nnc(C2OC(n3cnc4c(N)nc(NC(CO)Cc5ccccc5)nc43)C(O)C2O)n1 [Example 11, (2R,3R,4S,5R)-2-[6-Amino-2-(1S-hydroxymethyl-2-phenyl-ethylamino)-purin-9-yl]-5-(2-ethyl-2H-tetrazol-5-yl)-tetrahydro-furan-3,4-diol] the “A2a EC50 as a ratio of that of NECA” value (adenosine 2a receptor) was 0.109, the “A1 EC50 as a ratio of that of NECA” value (adenosine 1 receptor) was 38.1 and the “A3 EC50 as a ratio of that of NECA” value (adenosine 3 receptor) was over 356.
